The text below walks through data of ChEMBL document CHEMBL4765381, “Neuropeptide FF and Its Receptors: Therapeutic Applications and Ligand Development” (J Med Chem, 2020).

Chains of the proteins cited; added tags and fusions are not shown. Lines headed by an entry give the natural chain unless they say otherwise; changes in a name come on top.
UniProt Q9Y5X5: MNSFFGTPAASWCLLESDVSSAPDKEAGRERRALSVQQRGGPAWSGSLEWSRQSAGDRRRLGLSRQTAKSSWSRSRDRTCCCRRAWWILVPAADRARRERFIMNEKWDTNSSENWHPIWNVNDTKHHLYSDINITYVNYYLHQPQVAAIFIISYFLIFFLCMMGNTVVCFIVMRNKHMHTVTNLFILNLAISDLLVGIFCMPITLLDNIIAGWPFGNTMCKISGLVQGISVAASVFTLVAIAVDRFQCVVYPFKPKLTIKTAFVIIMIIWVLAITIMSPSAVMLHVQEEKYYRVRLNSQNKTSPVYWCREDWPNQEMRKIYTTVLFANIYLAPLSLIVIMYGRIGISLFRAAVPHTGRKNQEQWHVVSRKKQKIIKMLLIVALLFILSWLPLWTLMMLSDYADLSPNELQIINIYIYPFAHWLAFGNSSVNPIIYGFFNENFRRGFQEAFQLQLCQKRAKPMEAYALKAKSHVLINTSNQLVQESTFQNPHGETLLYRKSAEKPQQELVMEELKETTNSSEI

Experiment [1] in a line: Binding affinity to NPFFR in rat spinal cord by competitive ligand binding assay. It counts as tissue-based.
The target in experiment [2] is T1, Neuropeptide FF receptor 2 (Homo sapiens, UniProt Q9Y5X5). Description: Displacement of [125I]EYF from human NPFFR2 expressed in CHO cell membranes. It counts as cell-based.
Experiment [3] addresses T1, Neuropeptide FF receptor 2. The experiment can be described thus: Agonist activity at human NPFFR2 expressed in CHO cells assessed as inhibition of forskolin-induced intracellular cyclic cAMP accumulation. It counts as functional, cell-based.

As to `CSCC[C@H](NC(=O)[C@@H](N)Cc1ccccc1)C(=O)N[C@@H](CCCN=C(N)N)C(=O)N[C@@H](Cc1ccccc1)C(N)=O`, the Ki in experiment [1] came out at 1.8 nM; in experiment [2], 6.6 nM. In addition, the 50% effective concentration (EC50) in experiment [3] was 517 nM.

In the case of `N=C(N)NCCC[C@H](NC(=O)[C@H](CCC(N)=O)NC(=O)[C@@H]1CCCN1)C(=O)N[C@@H](Cc1ccccc1)C(N)=O`, the EC50 in experiment [3] stood at 309 nM.
